According to patent US7993756B2, “Long-chain quaternary ammonium compounds as wood treatment agents” (Viance, LLC, priority 2005, dated 2011):

Assay: Water solubility of 2HT
Assay type: physicochemical
Settings: ambient temperatures
Experimental: At ambient or lower than ambient temperatures, 2HT and water mixtures exist as a gel or paste. The viscosity of 2HT/water binary systems can be adjusted by changing the anion. When heated to 40-100° C., 2HT exists as a transparent solution in water or aqueous preservative solutions. Although soluble in water or aqueous preservative solutions at elevated temperatures, 2HT appears to be well fixed in wood substrates. It is believed that 2HT is fixed inside wood structures through physical absorption, precipitation, chemical, and physicochemical interactions.

water solubility: low water solubility
Substance: dimethyl di(hydrogenated tallow) ammonium compound [2HT]
